Results from ChEMBL document CHEMBL1139325, “Discovery of targeting ligands for breast cancer cells using the one-bead one-compound combinatorial method” (J Med Chem, 2009).

Target: T1, Integrin alpha-3 (Homo sapiens, UniProt P26006)
T1 sequence (P26006 whole entry): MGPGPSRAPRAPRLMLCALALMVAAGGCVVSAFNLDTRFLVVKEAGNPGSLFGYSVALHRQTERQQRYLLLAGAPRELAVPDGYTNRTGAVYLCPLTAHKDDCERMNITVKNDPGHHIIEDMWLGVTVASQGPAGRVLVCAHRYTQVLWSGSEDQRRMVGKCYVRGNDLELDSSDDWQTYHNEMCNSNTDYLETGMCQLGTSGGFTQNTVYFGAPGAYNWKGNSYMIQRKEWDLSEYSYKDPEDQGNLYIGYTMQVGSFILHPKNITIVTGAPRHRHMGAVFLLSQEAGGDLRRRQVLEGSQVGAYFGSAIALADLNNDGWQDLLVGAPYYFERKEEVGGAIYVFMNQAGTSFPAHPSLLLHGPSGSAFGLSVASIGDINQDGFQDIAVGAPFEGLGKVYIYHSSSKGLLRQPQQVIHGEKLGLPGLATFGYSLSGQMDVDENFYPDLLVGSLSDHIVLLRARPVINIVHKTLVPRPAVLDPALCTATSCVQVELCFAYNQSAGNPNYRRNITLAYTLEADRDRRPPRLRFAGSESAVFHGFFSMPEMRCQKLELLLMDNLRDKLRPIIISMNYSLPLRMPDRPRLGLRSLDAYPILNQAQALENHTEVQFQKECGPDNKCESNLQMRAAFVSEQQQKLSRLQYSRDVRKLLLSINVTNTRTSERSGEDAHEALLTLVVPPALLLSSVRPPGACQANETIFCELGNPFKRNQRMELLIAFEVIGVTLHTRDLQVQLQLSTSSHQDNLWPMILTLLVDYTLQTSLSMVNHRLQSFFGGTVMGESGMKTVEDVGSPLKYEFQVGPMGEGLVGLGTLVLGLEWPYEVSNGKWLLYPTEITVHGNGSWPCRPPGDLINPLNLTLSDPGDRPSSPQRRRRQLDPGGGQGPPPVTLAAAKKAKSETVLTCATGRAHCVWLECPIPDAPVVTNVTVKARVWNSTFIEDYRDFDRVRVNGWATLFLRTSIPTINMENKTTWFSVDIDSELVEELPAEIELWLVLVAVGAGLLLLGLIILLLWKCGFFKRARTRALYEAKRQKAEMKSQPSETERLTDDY
Assay: Binding affinity to integrin alpha3beta1 expressed in human MDA-MB-231 cells by flow cytometry
Format: cell-based

Question: For `CC(C)C[C@@H]1NC(=O)CNC(=O)[C@@H](CC(=O)O)NC(=O)[C@H](N)CSSC[C@H](C(N)=O)NC(=O)[C@H](CC(N)=O)NC(=O)[C@@H]2C[C@@H](O)CN2C(=O)CNC1=O`, which Kd is on record?
Answer: 0.4 µM
